This note sets out measurements from publication PMC5797947.

As usually defined, the Kd is the equilibrium constant for the complex coming apart. Read a high Kd as lower affinity.

Assay in all cases: SPR
Background: In SPR one partner is held on a chip, and binding of the other changes the refractive index at the surface.

Assay [1] concerns the target HAT-2nM, high-affinity TCR heterodimer, biotinylated.
For assay [2], the target named is HAT-140pM, high-affinity TCR heterodimer, biotinylated.
The target of assay [3] is HAT-40pM, high-affinity TCR heterodimer, biotinylated.

For the substance “pHLA-vrt3: HLA-A0201 with the NS3-1406 variant peptide vrt3 (from UniProt P61769 21-119) (peptide-MHC)”, the Kd is 180 nM in assay [1], 54 nM in assay [2] and 2.7 nM in assay [3].
